# PubChem BioAssay AID1662 (Broad Institute, 2009)
# Only a part is listed here, and it is no random draw. Calls of active or inactive are those of the source.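 Rule for the calls: active = mean replicate score, as percent of positive control median, at least 50; inconclusive = mean below 50 but one replicate at or above 50; inactive = mean and every replicate below 50.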
# Experiment: S. pyogenes SKKanGAS growth inhibitors in kanamycin, primary screen, streptokinase expression inhibitor project, SKKanGAS strain, BacTiter-Glo luminescence (AID 1662);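 note: strain carries kanamycin resistance gene driven by streptokinase promoter and grows in 40 µg/ml kanamycin; loss of luminescence reflects streptokinase promoter inhibition or plain growth inhibition; 0% = median of DMSO wells and 100% = positive control at its reference dose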
# Settings: 6 h, at 7.5 µM, active compounds read high
row,Compound,inhibition
1,CC1(CBr)Cn2c(nc3ccccc3c2=O)S1 (centres undefined),inactive: -3.69%
2,COc1ccccc1CNC(=O)COC(=O)C(O)(c1ccccc1)c1ccccc1,inactive: -2.36%
3,CN(C)C1(CNC(=O)c2ccc(S(C)(=O)=O)cc2)CCCCC1,inactive: 4.3%
4,O=C(/C=C/c1ccccc1)OC1CN2CCC1CC2 (centres undefined),inactive: 4.45%
5,Cc1nn(-c2ccccc2)c2c1P(=O)(N1CCOCC1)N(C)C(c1ccccc1)=N2 (centres undefined),inactive: 2.75%
6,CC1CCC(C(C)C)C(OP(=O)(Nc2ccccn2)c2ccccc2)C1 (centres undefined),inactive: -0.628%
7,Cc1ccc(C(=O)OC2CN3CCC2CC3)cc1 (centres undefined),inactive: -1.41%
8,Nc1cccc([As](=O)(O)c2ccccc2)c1,inactive: 0.337%
9,O=[As](O)(c1cccs1)c1cccs1,inactive: 16%
10,Cc1ccc(OCC(=O)OC2CN3CCC2CC3)cc1 (centres undefined),inactive: 4.43%
11,O=P1(Nc2ncccn2)COc2ccccc2OC1,inactive: -0.404%
12,O=P(Nc1nc2ccccc2s1)(c1ccccc1)c1ccccc1,inactive: 14.5%
13,C[C@H]1OP(=O)(Oc2ccccc2)[C@H](O)[C@H](O)[C@H]1N=[N+]=[N-] (some centres undefined),inactive: -0.0634%
14,O=P(Nc1ccccn1)(c1ccc(Br)cc1)c1ccc(Br)cc1,inactive: 2.17%
15,CN(C)C1(CNC(=O)c2ccc(Cl)c(S(N)(=O)=O)c2)CCCCC1,inactive: -2.21%
16,O=C(OC1CN2CCC1CC2)c1cccc(Cl)c1 (centres undefined),inactive: 0.527%
17,Nc1ccc([As](=O)(O)c2ccc([N+](=O)[O-])cc2)cc1,inactive: 0.474%
18,C(Cc1nn[nH]n1)Cc1nn[nH]n1,inactive: -0.795%
19,O=[As](O)(c1ccccc1)c1ccc(O)cc1,inactive: -5.52%
20,O=[N+]([O-])c1ccc(O)c(/C=N/Nc2ccc([N+](=O)[O-])cc2[N+](=O)[O-])c1,inactive: 9.23%
21,O=[N+]([O-])c1ncn(CCn2cnc([N+](=O)[O-])n2)n1,inactive: -7.44%
22,CC(=O)NC(SC(=S)N(C)C)C(Cl)(Cl)Cl (centres undefined),inactive: 8.14%

row,Compound,inhibition
1,c1nnnn1CCn1cnnn1,inactive: 0.626%
2,CC(C)C(=O)NC(Sc1ccccc1)C(Cl)(Cl)Cl (centres undefined),inactive: -1.62%
3,O=P(Nc1nccs1)(c1ccccc1)c1ccccc1,inactive: -7.08%
4,CC(C)(C)C(=O)NC(Sc1ccccc1)C(Cl)(Cl)Cl (centres undefined),inactive: 4.91%
5,O=P1(Nc2nc3ccc(Cl)cc3s2)COc2ccccc2O1 (centres undefined),inactive: -1.06%
6,CCOc1ccc(C2=NCC(CBr)S2)cc1 (centres undefined),inactive: -7.31%
7,CC(=O)Nc1ccc([As](=O)(O)O)c(O)c1,inactive: -14.2%
8,CC(=O)Nc1ccc(Oc2c([N+](=O)[O-])cc([N+](=O)[O-])cc2[N+](=O)[O-])cc1,inactive: 2.48%
9,C[C@@H]1C=CCP(=O)(Oc2ccccc2)O1 (some centres undefined),inactive: 0.469%
10,C[C@H]1OP(=O)(Oc2ccccc2)C[C@@H]2O[C@@H]21 (some centres undefined),inactive: -0.458%
11,CC(=O)c1ccc(N2CC2c2ccncc2)cc1 (centres undefined),inactive: -2.98%
12,c1ccc(-c2nn[nH]n2)c(-c2nn[nH]n2)c1,inactive: 6.44%
13,CCOC(=O)NC(Sc1ccccc1)C(Cl)(Cl)Cl (centres undefined),inactive: 8.79%
14,Cc1ccc(NP(=O)(Oc2cccc(C)c2)Oc2cccc(C)c2)nc1,inactive: -1.18%
15,CCNC(=S)/N=C(\N)N[N+](=O)[O-],inactive: -4.7%
16,O=C(NC1CCS(=O)(=O)C1)NP(=S)(Oc1ccccc1)Oc1ccccc1 (centres undefined),inactive: 11.5%
17,Cc1ccccc1OP(=O)(Nc1ccccn1)Oc1ccccc1C,inactive: -2.28%
18,CN(C)C(=O)Oc1noc2ccccc12,inactive: -6.03%
19,O=C(OC1CN2CCC1CC2)c1ccccc1 (centres undefined),inactive: -4.35%
20,CCC(=O)N1C2C3N(C(=O)CC)C1C1N(C(=O)CC)C(C(N1C(=O)CC)N3C(=O)CC)N2C(=O)CC,inactive: -3.03%
21,COC(=O)c1cc2c(s1)N=C(c1ccccc1)N(C)P2(=O)N1CCOCC1 (centres undefined),inactive: 1.52%
22,Cc1ccc(OP(=O)(Nc2ccccn2)Oc2ccc(C)cc2)cc1,inactive: 2.32%

row,Compound,inhibition
1,CC(=O)NC(SC(=S)N(CC(C)C)CC(C)C)C(Cl)(Cl)Cl (centres undefined),inactive: 3.39%
2,CCOP(=O)(Nc1ccccc1)OCC,inactive: -0.485%
3,Cc1cc(SC(NC(=O)c2ccc(F)cc2)C(Cl)(Cl)Cl)ncn1 (centres undefined),inactive: 1.91%
4,Cc1ccc(NP(=O)(Oc2ccccc2F)Oc2ccccc2F)nc1,inactive: 14.3%
5,CN(C(=O)Cc1ccc(Cl)c(Cl)c1)[C@H]1CCCC[C@@H]1N1CCCC1,inactive: 0.808%
6,O=P(Nc1nc2ccc(Cl)cc2s1)(c1ccccc1)c1ccccc1,active: 90.4%
7,O=C(O)c1ccccc1[As](=O)(O)O,inactive: -3.11%
8,CC(=O)Nc1ccc([As](=O)(O)O)cc1,inactive: -4.12%
9,CC(=O)O[C@]1(C)C(=O)OC/C2=C/CN(C)CCC(OC(=O)[C@@](O)(C(C)O)C[C@H]1C)C2=O (some centres undefined),inactive: -0.161%
10,Nc1cccc2ccc([As](=O)(O)O)cc12,inactive: 0.981%
11,CCN(N=Nc1nonc1N)c1nonc1N,inactive: 4.98%
12,O=[N+]([O-])c1cc([N+](=O)[O-])c(CCN2CCOCC2)c([N+](=O)[O-])c1,inactive: 19.4%
13,Clc1ccc(Cl)c(NC2=NCC(CBr)S2)c1 (centres undefined),inactive: 5.04%
14,CN1CCCC(OC(=O)C(c2ccccc2)c2ccccc2)C1 (centres undefined),inactive: 6.59%
15,CC(C)[C@H]1C(=O)O[C@@H]2CCN3CC=C(COC(=O)[C@](C)(O)[C@]1(C)O)[C@H]23,inactive: 0.512%
16,COc1ccccc1OP(=O)(Nc1ccc(C)cn1)Oc1ccccc1OC,inactive: -3.24%
17,Cc1ccc(OP(=O)(Nc2nccs2)Oc2ccc(C)cc2)cc1,inactive: 36.2%
18,Cc1ccc(N/C(=N/P(=O)(N2CCOCC2)N2CCOCC2)N2CCOCC2)cc1,inactive: 2.4%
19,NC(=O)c1cc([N+](=O)[O-])cc([N+](=O)[O-])c1N,inactive: 1.38%
20,Oc1ccccc1CNc1ccccn1,inactive: -13.2%
